# According to ChEMBL document CHEMBL1147912, “1-(1,3-Benzodioxol-5-ylmethyl)-3-[4-(1H-imidazol-1-yl)phenoxy]-piperidine analogs as potent and selective inhibitors of nitric oxide formation” (Bioorg Med Chem Lett, 2007):
# By UniProt entry, the sequences of proteins in these tests, tags left out.
# UniProt P29475, whole entry, looked up: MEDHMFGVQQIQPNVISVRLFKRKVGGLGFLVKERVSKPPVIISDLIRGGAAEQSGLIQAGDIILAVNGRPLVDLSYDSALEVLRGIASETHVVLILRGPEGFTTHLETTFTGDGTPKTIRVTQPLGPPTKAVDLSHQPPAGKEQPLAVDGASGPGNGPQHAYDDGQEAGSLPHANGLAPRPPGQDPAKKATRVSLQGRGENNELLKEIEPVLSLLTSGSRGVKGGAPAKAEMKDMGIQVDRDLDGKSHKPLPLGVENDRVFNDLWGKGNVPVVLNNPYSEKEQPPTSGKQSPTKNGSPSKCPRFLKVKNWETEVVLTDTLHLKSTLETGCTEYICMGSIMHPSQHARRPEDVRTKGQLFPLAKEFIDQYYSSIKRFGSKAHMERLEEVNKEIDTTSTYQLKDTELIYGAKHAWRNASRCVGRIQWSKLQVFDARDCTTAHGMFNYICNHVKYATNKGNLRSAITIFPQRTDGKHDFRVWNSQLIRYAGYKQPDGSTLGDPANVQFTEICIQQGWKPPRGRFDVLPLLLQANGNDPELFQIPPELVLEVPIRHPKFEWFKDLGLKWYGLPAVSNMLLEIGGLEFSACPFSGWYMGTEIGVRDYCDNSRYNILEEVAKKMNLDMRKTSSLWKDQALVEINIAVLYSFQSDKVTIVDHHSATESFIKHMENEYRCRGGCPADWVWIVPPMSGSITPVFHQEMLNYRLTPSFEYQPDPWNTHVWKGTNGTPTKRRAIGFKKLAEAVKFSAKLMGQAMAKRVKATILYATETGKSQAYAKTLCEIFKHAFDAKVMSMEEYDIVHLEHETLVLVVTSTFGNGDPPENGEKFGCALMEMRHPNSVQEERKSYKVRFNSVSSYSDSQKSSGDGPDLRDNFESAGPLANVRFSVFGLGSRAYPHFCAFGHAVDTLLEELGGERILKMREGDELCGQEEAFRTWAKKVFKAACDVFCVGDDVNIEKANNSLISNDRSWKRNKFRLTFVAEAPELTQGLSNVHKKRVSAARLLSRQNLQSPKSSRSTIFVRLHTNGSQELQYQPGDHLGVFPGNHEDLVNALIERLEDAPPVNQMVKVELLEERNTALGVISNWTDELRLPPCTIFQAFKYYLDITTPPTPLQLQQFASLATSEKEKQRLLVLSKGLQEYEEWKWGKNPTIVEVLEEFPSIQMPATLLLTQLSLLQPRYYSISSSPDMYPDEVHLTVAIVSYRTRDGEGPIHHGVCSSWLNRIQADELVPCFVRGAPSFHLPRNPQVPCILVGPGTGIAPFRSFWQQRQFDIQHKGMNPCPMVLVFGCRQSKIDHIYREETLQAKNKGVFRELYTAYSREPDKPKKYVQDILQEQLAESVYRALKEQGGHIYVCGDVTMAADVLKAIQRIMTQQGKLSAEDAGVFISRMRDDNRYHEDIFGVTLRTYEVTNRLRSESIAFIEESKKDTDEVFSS
# UniProt P35228, whole entry, looked up: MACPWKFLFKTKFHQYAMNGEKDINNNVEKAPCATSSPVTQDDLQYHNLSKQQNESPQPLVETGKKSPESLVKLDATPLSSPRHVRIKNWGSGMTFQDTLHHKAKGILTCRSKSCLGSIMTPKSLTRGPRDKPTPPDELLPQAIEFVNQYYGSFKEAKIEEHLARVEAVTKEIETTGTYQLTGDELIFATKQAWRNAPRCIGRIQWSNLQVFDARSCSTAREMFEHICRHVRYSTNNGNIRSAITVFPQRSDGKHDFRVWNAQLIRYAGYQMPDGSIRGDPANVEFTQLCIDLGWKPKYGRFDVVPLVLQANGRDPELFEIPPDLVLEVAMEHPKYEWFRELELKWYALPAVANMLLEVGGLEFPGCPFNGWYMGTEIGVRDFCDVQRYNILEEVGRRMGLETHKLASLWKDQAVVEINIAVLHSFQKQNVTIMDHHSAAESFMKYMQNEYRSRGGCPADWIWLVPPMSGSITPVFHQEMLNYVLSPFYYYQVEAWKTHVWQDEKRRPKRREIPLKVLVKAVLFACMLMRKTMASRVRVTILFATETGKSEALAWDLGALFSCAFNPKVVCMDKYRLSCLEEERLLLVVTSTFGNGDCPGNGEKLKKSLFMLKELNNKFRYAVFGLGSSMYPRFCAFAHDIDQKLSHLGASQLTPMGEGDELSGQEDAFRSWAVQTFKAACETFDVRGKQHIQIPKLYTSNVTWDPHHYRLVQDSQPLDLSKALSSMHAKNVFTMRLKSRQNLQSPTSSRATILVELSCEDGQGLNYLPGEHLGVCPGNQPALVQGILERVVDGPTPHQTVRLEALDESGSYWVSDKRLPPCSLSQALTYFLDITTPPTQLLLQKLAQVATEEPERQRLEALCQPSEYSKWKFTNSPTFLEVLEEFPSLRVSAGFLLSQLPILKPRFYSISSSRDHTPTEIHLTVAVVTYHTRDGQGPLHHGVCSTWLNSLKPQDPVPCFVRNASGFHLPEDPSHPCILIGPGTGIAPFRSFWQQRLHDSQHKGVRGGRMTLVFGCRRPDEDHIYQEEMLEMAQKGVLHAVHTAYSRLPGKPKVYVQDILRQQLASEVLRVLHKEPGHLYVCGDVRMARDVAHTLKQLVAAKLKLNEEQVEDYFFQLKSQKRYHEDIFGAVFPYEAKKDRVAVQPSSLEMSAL
# What was measured:
# [1] = species: Homo sapiens; experiment: Selectivity for iNOS over eNOS in tetracycline-induced system
# [2] = molecular target: Nitric oxide sythases; iNOS & nNOS (Homo sapiens) (UniProt P29475+P35228); experiment: Selectivity for iNOS over nNOS in tetracycline-induced system
Ratio IC50 [1],Ratio IC50 [2],SMILES
400,350,c1cn(-c2ccc(OC3CCCN(Cc4ccc5c(c4)OCO5)C3)cc2)cn1 (stereo not given)
420,600,c1cn(-c2ccc(O[C@H]3CCCN(Cc4ccc5c(c4)OCO5)C3)cc2)cn1
> 46,> 46,c1cn(-c2ccc(OCC3CCCCN3Cc3ccc4c(c3)OCO4)cc2)cn1 (stereo not given)
–,> 80,c1cn(-c2ccc(OC[C@H]3CCCN3Cc3ccc4c(c3)OCO4)cc2)cn1
–,439,c1cn(-c2ccc(NC3CCCN(Cc4ccc5c(c4)OCO5)C3)cc2)cn1 (stereo not given)
> 17,> 17,c1cn(-c2ccc(OC3CCCN(Cc4ccc5c(c4)OCO5)C3)nn2)cn1 (stereo not given)
